Assays:
[1] = molecular target: T1, TGF-beta receptor type-1 (Homo sapiens) (UniProt P36897); assay: Potency index, ratio of LY-2157299 IC50 to test compound IC50 for recombinant human GST-fused ALK5 expressed in baculovirus infected Sf9 cells assessed as incoporation of [33]Pi after 60 mins in presence of [gamma-33P]-ATP by microplate scintillation counter method
T1 sequence (whole entry): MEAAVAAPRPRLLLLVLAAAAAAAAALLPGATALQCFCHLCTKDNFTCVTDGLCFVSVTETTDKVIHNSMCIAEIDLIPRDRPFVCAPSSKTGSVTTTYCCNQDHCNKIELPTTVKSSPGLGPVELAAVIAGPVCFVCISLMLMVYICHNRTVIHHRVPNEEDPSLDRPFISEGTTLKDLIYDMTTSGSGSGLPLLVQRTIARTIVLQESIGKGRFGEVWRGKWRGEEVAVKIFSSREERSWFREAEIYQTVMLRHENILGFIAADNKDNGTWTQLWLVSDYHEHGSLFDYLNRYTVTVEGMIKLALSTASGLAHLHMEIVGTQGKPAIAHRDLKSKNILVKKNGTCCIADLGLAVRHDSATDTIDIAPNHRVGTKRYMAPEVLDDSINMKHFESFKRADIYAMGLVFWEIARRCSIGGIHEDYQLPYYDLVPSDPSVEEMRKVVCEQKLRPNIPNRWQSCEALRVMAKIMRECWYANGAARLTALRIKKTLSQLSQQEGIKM

[2] = molecular target: T1, TGF-beta receptor type-1 (Homo sapiens); assay: Potency index, ratio of EW-7197 IC50 to test compound IC50 for recombinant human GST-fused ALK5 expressed in baculovirus infected Sf9 cells assessed as incoporation of [33]Pi after 60 mins in presence of [gamma-33P]-ATP by microplate scintillation counter method

Ratio IC50 [1]: 32.3
Ratio IC50 [2]: 3.5
Structure (SMILES): Cc1cccc(-c2[nH]c(CNc3cccc(F)c3)nc2-c2ccc3[nH]ncc3c2)n1
